Values quoted from earlier work, collected in US20250127752A1, “REDUCED REBOUND EFFECTS IN SUBJECTS TREATED FOR OVERWEIGHT OR OBESITY” (Empros Pharma AB, priority 2021, published 2025).
Where two headings read alike, the source gives them in different places.

Settings: oral, conventional dosage form, cited from earlier work

C[C@H]1O[C@H](O[C@H]2[C@H](O)[C@@H](O)[C@@H](O[C@H]3[C@H](O)[C@@H](O)C(O)O[C@@H]3CO)O[C@@H]2CO)[C@H](O)[C@@H](O)[C@@H]1N[C@H]1C=C(CO)[C@@H](O)[C@H](O)[C@H]1O (stereo partly drawn) [acarbose, O-4,6-Dideoxy-4-[[(1S,4R,5S,6S)-4,5,6-trihydroxy-3-(hydroxymethyl)cyclohex-2-enyl]amino]-α-D-glucopyranosyl-(1→4)-O-α-D-gluco-pyranosyl-(1→4)-D-glucopyranose]
Fraction of the dose absorbed: less than 5%
Fraction of the dose absorbed (listed as Acarbose): < 5%
